Experiments:
Assay type in all cases: cell-based
human GLP-1R = target: T1, human GLP-1R (Homo sapiens, UniProt P43220); assay: cAMP HTRF agonist activity assay in CHO-K1 cells expressing GLP-1R; details: read-out: Activity against human GLP-1R (EC50 nM); CHO-K1 clonal cell line, intracellular cAMP (HTRF), 5% FBS, 0.1% Casein, 37°C 30 min; relative EC50 vs maximum response of human GLP-1(7-36)-NH2
T1 construct: expressed in transfected cells; host or cells: CHO-K1 clonal cell line
Experimental: (§1) Functional activity was determined in CHO-K1 clonal cell lines expressing GIPR, GLP-1R, and GCGR. […] Each recipient cell (5000 cells/well) was added to an SV 96-well plate (Cisbio, 66PL96025) and incubated with the prepared polypeptide at 37°Cfor 30 min. The resulting increase in intracellular cAMP was quantitatively measured using the cAMP-GS dynamic HTRF assay kit (Cisbio, 62AM4PEJ). Briefly, the intracellular cAMP levels were determined by adding cAMP-d2 conjugate in cell lysis buffer, followed by the antibody anti-cAMP-Eu cryptate (also in cell lysis buffer).
(§2) Using the maximum response percentage vs. the added polypeptide concentration, the relative EC50 values were derived through nonlinear regression analysis and fitted to a four-parameter logarithmic equation. For specific data, refer to Tables 7-1 to 7-8 below. […]

Amino acid sequences for entries named in this document (tags omitted). Residues count along the entry.
UniProt P43220, 24-463: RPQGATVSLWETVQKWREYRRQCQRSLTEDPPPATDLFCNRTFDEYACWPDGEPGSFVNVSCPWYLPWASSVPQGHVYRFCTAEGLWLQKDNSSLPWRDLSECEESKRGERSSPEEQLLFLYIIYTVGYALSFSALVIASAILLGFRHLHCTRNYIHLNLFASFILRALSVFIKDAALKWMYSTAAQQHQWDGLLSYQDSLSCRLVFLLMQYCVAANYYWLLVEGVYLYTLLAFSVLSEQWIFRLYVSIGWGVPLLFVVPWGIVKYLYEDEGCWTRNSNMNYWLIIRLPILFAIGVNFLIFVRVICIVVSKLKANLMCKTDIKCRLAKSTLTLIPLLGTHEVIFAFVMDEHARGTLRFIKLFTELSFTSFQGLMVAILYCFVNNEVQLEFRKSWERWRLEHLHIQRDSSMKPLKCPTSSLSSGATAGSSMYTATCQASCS
UniProt P47871, 26-477: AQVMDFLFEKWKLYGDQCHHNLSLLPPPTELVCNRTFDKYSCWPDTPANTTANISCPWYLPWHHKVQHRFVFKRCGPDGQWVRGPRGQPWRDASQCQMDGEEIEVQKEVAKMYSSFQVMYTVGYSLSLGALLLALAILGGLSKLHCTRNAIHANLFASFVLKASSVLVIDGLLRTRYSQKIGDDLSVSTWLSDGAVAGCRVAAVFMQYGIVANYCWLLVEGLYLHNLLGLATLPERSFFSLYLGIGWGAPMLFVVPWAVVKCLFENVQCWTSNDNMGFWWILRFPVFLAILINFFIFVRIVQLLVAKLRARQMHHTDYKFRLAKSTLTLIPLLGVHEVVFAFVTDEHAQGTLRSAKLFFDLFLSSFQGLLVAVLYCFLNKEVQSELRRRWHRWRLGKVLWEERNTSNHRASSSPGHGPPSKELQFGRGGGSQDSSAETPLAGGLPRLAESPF

human GIPR = target: T2, human GIPR (Homo sapiens, UniProt P48546); assay: cAMP HTRF agonist activity assay in CHO-K1 cells expressing GIPR; details: read-out: Activity against human GIPR (EC50 nM); CHO-K1 clonal cell line, intracellular cAMP (HTRF), 5% FBS, 0.1% Casein, 37°C 30 min; relative EC50 vs maximum response of human GIP(1-42)-NH2
T2 construct: expressed in transfected cells; host or cells: CHO-K1 clonal cell line
T2 sequence (P48546 22-466): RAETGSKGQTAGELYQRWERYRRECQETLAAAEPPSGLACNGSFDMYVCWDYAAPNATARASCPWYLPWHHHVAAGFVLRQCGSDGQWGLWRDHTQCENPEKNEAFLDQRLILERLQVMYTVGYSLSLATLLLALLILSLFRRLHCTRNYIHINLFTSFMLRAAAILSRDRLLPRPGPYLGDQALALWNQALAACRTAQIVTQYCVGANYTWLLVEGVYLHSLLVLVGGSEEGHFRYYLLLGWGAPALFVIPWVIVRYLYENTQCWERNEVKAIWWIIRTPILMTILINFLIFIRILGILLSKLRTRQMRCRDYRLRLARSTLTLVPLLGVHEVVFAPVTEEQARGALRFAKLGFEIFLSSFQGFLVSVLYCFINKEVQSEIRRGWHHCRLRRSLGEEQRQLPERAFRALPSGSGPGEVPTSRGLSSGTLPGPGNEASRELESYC
Experimental: as §1, §2

human GCGR = target: T3, human GCGR (Homo sapiens, UniProt P47871); assay: cAMP HTRF agonist activity assay in CHO-K1 cells expressing GCGR; details: read-out: Activity against human GCGR (EC50 nM); CHO-K1 clonal cell line, intracellular cAMP (HTRF), 5% FBS, 0.1% Casein, 37°C 30 min; relative EC50 vs maximum response of human GCG (1-29)
T3 construct: expressed in transfected cells; host or cells: CHO-K1 clonal cell line
Experimental: as §1, §2

Substance | EC50 (human GLP-1R) [nM] | EC50 (human GIPR) [nM] | EC50 (human GCGR) [nM]
H-Aib-HGTFTSDYSK-αY-LE-K(-OEG-OEG-γGlu-C(O)-(CH2)15-COOH)-KAAQEFVEWLLAGGPSSGAPPPS-NH2 [Compound 0106] | 0.03 | 0.027 | 0.095
H-Aib-HGTFTSDYS-αK-LLE-K(-OEG-OEG-γGlu-C(O)-(CH2)18-COOH)-QAAQEFVEWLLAGGPSSGAPPPS-NH2 [Compound 0117] | 0.059 | 0.003 | 
H-Aib-HGTFTSDYS-αK-LLE-K(-OEG-OEG-γGlu-C(O)-(CH2)15-COOH)-IAAQEFVEWLLAGGPSSGAPPPS-NH2 [Compound 0118] | 0.073 | 0.004 | 
H-Aib-HGTFTSDYS-αK-ILE-K(-OEG-OEG-γGlu-C(O)-(CH2)18-COOH)-KAA-Iva-EFVEWLIEGGPSSGAPPPS-NH2 [Compound 0132] | 0.024 | 0.001 | 0.03
H-Aib-QGTFTSDYSI-αL-LE-K(-OEG-OEG-γGlu-C(O)-(CH2)18-COOH)-KAAQEFVEWLLAGGPSSGAPPPS-NH2 [Compound 0155] | 0.036 | 0.014 | 3.66
H-Aib-HGTFTSDYS-αK-YLE-K(-OEG-OEG-γGlu-C(O)-(CH2)18-COOH)-KAAQEFVEWLIAGGPSSGAPPPS-NH2 [Compound 0111] | 0.015 | 0.024 | 0.552
Y-Aib-QGTFTSDYS-αK-LLE-K(-OEG-OEG-γGlu-C(O)-(CH2)18-COOH)-KAAQEFVEWLLAGGPSSGAPPPS-NH2 [Compound 0114] |  | 0.01 | 
H-Aib-HGTFTSDLS-αK-ILE-K(-OEG-OEG-γGlu-C(O)-(CH2)18-COOH)-KAA-Iva-EFVEWLIEGGPSSGAPPPS-NH2 [Compound 0134] | 0.017 | 0.002 | 0.025
H-Aib-HGTFTSDYSKYLE-K(-OEG-OEG-γGlu-C(O)-(CH2)18-COOH)-αK-AAQEFVEWLLAGGPSSGAPPPS-NH2 [Compound 0109] | 0.011 | 0.027 | 0.031
H-Aib-HGTFTSDYSKY-αL-E-K(-OEG-OEG-γGlu-C(O)-(CH2)18-COOH)-KAAQEFVEWLLAGGPSSGAPPPS-NH2 [Compound 0108] | 0.014 | 0.078 | 0.315

From patent EP4745153A1, “GLP-1, GIP AND GCG RECEPTOR […] USE THEREOF” (Jiangsu Hengrui Pharmaceuticals Co., Ltd., priority 2023, dated 2025)
